Data on two compounds can be found in ChEMBL document CHEMBL6083286, “Discovery of ERD-12310A as an Exceptionally Potent and Orally Efficacious PROTAC Degrader of Estrogen Receptor α (ERα)” (J Med Chem, 2024).

Amino acid sequences for entries named in this document (tags omitted). A change or cut given only in a name is not applied to a line headed by its entry.
UniProt Q96SW2: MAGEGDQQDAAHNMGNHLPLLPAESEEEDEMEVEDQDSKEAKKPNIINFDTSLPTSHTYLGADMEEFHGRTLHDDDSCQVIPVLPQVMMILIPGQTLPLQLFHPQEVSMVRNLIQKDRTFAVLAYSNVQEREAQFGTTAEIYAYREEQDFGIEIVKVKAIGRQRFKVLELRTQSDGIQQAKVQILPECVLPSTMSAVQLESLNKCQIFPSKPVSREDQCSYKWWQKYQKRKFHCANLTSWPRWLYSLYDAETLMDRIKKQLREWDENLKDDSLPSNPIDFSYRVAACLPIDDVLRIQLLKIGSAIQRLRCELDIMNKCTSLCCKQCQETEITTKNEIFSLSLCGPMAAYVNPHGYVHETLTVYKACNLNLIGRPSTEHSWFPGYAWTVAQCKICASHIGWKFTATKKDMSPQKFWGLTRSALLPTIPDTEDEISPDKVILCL

The target of this experiment is Protein cereblon (Homo sapiens, UniProt Q96SW2). Put plainly: Binding affinity to wild type GST-tagged human CRBN by HTRF assay. On the technique in general: Time-resolved FRET reads energy transfer from a long-lived donor to a nearby acceptor.

In the case of `CN1CC2(CCNCC2)c2ccc3c(c21)CN([C@H]1CCC(=O)NC1=O)C3=O`, the IC50 (commonly the concentration that inhibits the measured activity by half) turned out to be 2700 nM. Consider `O=C1CC[C@H](N2Cc3c(ccc4c3NCC43CCNCC3)C2=O)C(=O)N1`, for which the concentration for half-maximal inhibition (IC50) came out at 2690 nM.
